From patent US20050276812A1, “Antibody-drug conjugates and methods” (Genentech, Inc., priority 2004, published 2005)

Key:
[1] = system: HER2 positive tumor (Fo5) allograft; test: HER2 transgenic explant (Fo5) allograft tumor model; type: in vivo, mice; conditions: single injection, versus Vehicle
[2] = 5-day acute toxicity study in rats; type: in vivo, female Sprague-Dawley rats
[3] = system: HER2 positive tumor (Fo5) allograft; conditions: Fo5 model (Erickson et al U.S. Pat. No. 6,632,979); cited from earlier work

For “trastuzumab-SIAB-DM1: trastuzumab linked by SIAB linker to DM1”, the “anti-tumor activity / tumor growth” value [1] was “Tumor growth was slowed most”.
For “trastuzumab-SPP-DM1: comparison disulfide linker ADC: trastuzumab-SPP-DM1”, the clinical toxicity ([2]; 22.3 mg/kg (Group 2)) was “most severe clinical toxicity” and the body weight ([2]; lower dose, 1860 μg DM1/m2, single injection, 5 days) was “decline in body weight”.
For “trastuzumab: recombinant humanized IgG1 kappa monoclonal antibody binding HER2”, the “anti-tumor activity of antibody alone” value [3] is listed as “does not have significant anti-tumor activity”.
